Reference: paper PMC4168798 (ACS Chemical Biology, 2014)

T1: Bfl-1 (c-myc-tagged, without the C-terminal trans-membrane region) (human)
T1 sequence (Q16548 whole entry, looked up): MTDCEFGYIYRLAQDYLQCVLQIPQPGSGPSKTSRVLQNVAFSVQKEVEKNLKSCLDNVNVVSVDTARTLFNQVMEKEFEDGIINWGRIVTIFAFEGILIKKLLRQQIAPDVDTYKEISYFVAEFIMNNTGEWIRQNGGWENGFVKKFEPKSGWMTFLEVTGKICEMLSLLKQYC

T2: Bcl-w (c-myc-tagged, without the C-terminal trans-membrane region) (human)
T2 chain: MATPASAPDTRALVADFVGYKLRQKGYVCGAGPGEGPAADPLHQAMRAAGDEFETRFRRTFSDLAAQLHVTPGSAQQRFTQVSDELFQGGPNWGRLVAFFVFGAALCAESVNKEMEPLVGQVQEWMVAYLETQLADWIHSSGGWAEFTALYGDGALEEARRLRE

B1: MS2, N-terminal fluorescein (designed binder)
chain: RPEIWLTQSLQRLGDEINAYYAR
modifications: N-terminal 5/6-fluorescein amidite; C-terminal amidation
B2: MS1, N-terminal fluorescein (designed binder)
chain: RPEIWMTQGLRRLGDEINAYYAR
modifications: N-terminal 5/6-fluorescein amidite; C-terminal amidation

Tests used:
Assay in all cases: fluorescence polarisation
[1] = target: Bcl-2 (c-myc-tagged, without the C-terminal trans-membrane region) (human)
[2] = target: T1, Bfl-1 (c-myc-tagged, without the …)
[3] = target: Mcl-1 (c-myc-tagged, without the N-terminal domain and the C-terminal trans-membrane region) (human)
[4] = target: T2, Bcl-w (c-myc-tagged, without the …)
[5] = target: Bcl-xL (c-myc-tagged, without the C-terminal trans-membrane region) (human)

| Binder | Kd [1] [nM] | Kd [2] [nM] | Kd [3] [nM] | Kd [4] [nM] | Kd [5] [nM] |
| --- | --- | --- | --- | --- | --- |
| B1 | 6200 | 3100 | 1.5 | 250 | 1400 |
| B2 | – | – | – | 1300 | 1600 |
